According to PubChem BioAssay AID2563 (Broad Institute, 2010):
The list shows a part of the results, in another mix than the full data. Calls of active or inactive are those of the source.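 Rule for the calls: active = fall in fluorescence gain of 50% or more versus controls, with final raw signal at or below 3038400; inconclusive = same 50% fall but final raw signal above 3038400; inactive = fall in fluorescence gain under 50%.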

The chains behind the UniProt entries cited, without tags or fusion partners.
UniProt Q03530, whole entry: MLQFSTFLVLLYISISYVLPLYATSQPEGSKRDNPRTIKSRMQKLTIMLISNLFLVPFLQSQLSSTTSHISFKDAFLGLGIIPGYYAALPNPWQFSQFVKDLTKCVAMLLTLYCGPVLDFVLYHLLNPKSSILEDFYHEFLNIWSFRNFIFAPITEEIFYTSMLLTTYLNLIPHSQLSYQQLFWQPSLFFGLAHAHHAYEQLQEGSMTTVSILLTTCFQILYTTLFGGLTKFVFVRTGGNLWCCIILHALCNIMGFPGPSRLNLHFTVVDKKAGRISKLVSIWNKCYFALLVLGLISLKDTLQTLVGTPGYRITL

What follows are compounds tested against CAAX prenyl protease 2 (Saccharomyces cerevisiae (strain ATCC 204508 / S288c)) (UniProt Q03530) (assay: yeast Rce1p protease inhibitors, primary screen, biochemical, fluorescence, cell-free homogeneous (AID 2563)). Conditions: yeast membranes, quenched prenylated peptide cleavage fluorescence.
Cc1ccc(C(=O)NCC2(N3CCCCC3)CCCCC2)o1 was tested, and the outcome was “inactive”.
With COc1cc(OC)cc(C(=O)NCC2(N3CCCCC3)CCCCC2)c1 the outcome was “inactive”.
In the case of CN(C)c1ccc(C(=O)NCC2(N3CCCCC3)CCCCC2)cc1, the outcome is reported as “inactive”.
In the case of CCN1CCC(Nc2cccc(F)c2)CC1, the outcome is reported as “inactive”.
With CCCOc1ccc(C(=O)NCC2(N(C)C)CCCCC2)cc1 the outcome was “inactive”.
In the case of O=C(O)C1(Nc2ccccc2)CCN(Cc2ccccc2)CC1, the outcome is reported as “inactive”.
With CC(C)(C)OC(=O)N1CCC(Nc2ccccc2)CC1 the outcome was “inactive”.
In the case of CN1CCC(Nc2ccc(F)c(Cl)c2)CC1, the outcome is reported as “inactive”.
For CCCOc1ccc(C)cc1CN(CCCl)CCCl, the outcome was “inactive”.
CN1CCC(Nc2ccc(Cl)cc2)CC1 was tested, and the outcome was “inactive”.
For CCC(CO)(C(=O)OC1CN2CCC1CC2)c1ccccc1 (stereo not drawn), the outcome was “inactive”.
For COc1cc(OC)cc(C(=O)NCC2(N3CCOCC3)CCCCC2)c1, the outcome was “inactive”.
For COc1cccc(C(=O)N(c2cc(C)cc(C)c2)C2CCN(C(=O)OC(C)(C)C)CC2)c1, the outcome was “inactive”.
For COc1ccc(C(=O)NCC2(N3CCOCC3)CCCCC2)cc1OC, the outcome was “inactive”.
With CCc1cc(C(=O)NCC2(N3CCCCC3)CCCCC2)sc1C the outcome was “inactive”.
With O=C(OC1CN2CCC1CC2)C1c2ccccc2C=Cc2ccccc21 (stereo not drawn) the outcome was “inactive”.
For N/C(=N\O)c1c(N)no[n+]1[O-], the outcome was “inactive”.
CCOC(=O)N1CCC(Nc2ccc(C)cc2)CC1 was tested, and the outcome was “inactive”.
In the case of CC(C)(C)OC(=O)N1CCC(N(C(=O)c2ccccc2)c2ccc(Cl)cc2)CC1, the outcome is reported as “inactive”.
With N#Cc1ccc(C(=O)NCC2(N3CCCCC3)CCCCC2)cc1 the outcome was “inactive”.
For CCCN1CCC(Nc2cc(OC)cc(OC)c2)CC1, the outcome was “inactive”.
With c1ccc(CN2CCC(Nc3ccccc3)CC2)cc1 the outcome was “inactive”.
For CN(C)C1(CNC(=O)c2cccc(C#N)c2)CCCCC1, the outcome was “inactive”.
